Experimental data as given in US20190062322A1, “PUMA INHIBITOR, METHOD FOR PREPARATION THEREOF, AND USE THEREOF” (FOURTH MILITARY MEDICAL UNIVERSITY, priority 2016, published 2019).

By UniProt entry, the sequences of proteins in these tests, tags left out.
UniProt Q07820, whole entry: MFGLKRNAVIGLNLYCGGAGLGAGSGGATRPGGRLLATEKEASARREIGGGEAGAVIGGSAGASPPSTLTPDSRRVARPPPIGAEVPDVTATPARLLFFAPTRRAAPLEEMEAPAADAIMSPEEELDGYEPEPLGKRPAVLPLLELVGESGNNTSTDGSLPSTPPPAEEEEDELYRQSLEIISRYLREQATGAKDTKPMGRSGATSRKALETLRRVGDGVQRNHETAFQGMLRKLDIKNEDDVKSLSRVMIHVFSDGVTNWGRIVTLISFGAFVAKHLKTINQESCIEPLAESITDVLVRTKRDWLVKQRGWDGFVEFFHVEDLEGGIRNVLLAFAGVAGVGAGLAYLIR

Target: Mcl-1 (Homo sapiens, UniProt Q07820)
Assay: FPA competition assay, inhibition of Mcl-1 / FITC-Mcl-BH3 binding
Details: 250 nM Mcl-1 and 250 nM FITC-Mcl-BH3 probe, pH 7.5, cells printed in nM
Excerpt: Experiment 1 the Inhibition Assay of Compounds 1˜12 to Mcl-1
FPA competition assays were adopted to evaluate the binding affinity of compounds to Mcl-1. The FITC labelled BH3 peptide of Mcl-1 (FITC-Mcl-BH3, FITC-AHx-KALETLRRVGD GVQRNHITAF-NH2) was synthesized and used as fluorescence probe in the FPA competition assays. The binding of FITC-Mcl-BH3 and Mcl-1 can enhance the polarized light. While the binding of compounds and Mcl-1 would reduce the polarization, IC50 is the compound concentration that displaces 50% of the fluorescent ligand from the ligand-receptor complex.
All assays were performed in the assay buffer (pH 7.5) composed of 20 mM Tris, 50 mM NaCl, 3 mM DTT and 2% DMSO. The FPA competition assays were carried out in the 96-well, black, flat-bottom plates (Nunc). To check the interference effects of candidate compounds on the interaction between Mcl-1 and FITC-Mcl-BH3, solutions containing 250 nM Mcl-1 and 250 nM fluorescence probes were titrated with […] selected compounds (0-128 μM, 2-times gradient) dissolved in the assay buffer. The emission fluorescence changes were recorded from 480 to 540 nm by TECAN Infinite M1000 Microplate Spectrophotometer with excitation wavelength being 450 nm. The IC50 were calculated.

SMILES	IC50
O=C1N=C(N2CCN(CCO)CC2)S/C1=C\c1ccccc1	295 nM
O=C1N=C(N2CCC(CCO)CC2)S/C1=C\c1ccc(-c2ccccc2)cc1	5.68 nM
Cc1ccc(/C=C2\SC(N3CCC(CCO)CC3)=NC2=O)cc1	4.77 nM
